Experimental data reported in article PMC4358366, “Identification of ‘erasers’ for lysine crotonylated histone marks using a chemical proteomics approach” (eLife, 2014).

Key:
[1] = system: Sirt1; assay: Hydrolysis of H3K4Cr by Sirt1, LC-MS; assay type: biochemical, human; conditions: Sirt1 5 μM, 500 μM peptide, 1 mM NAD, pH 7.5, 37 °C, 2 hr
Experimental: (§1) Plasmids of Sirt1 (193–747), Sirt2 (36–356), Sirt5 (34–302), and Sirt6 (1–314) for Escherichia coli expression were generated as previously described ([Finnin et al., 2001]; [Du et al., 2011]; [Hubbard et al., 2013]; [Jiang et al., 2013]). […] Sirt3 mutant F180L was generated by site directed mutagenesis. All of the proteins were expressed in E. coli Rosetta cells. To induce expression of target proteins, isopropyl β-D-1-thiogalactopyranoside was added to a final concentration of 0.2 mM when OD600 reached 0.6, and the culture was grown at 15 °C (Sirt3 at 25 °C) for 16–18 hr. Cells were harvested and resuspended in lysis buffer A (50 mM Tris–HCl, pH 7.5, 500 mM NaCl, 1 mM PMSF, and Roche EDTA free protease inhibitors, for Sirt1, Sirt2, and Sirt6) or buffer B (50 mM Tris–HCl, pH 7.5, 150 mM NaCl, 1 mM PMSF, and Roche EDTA free protease inhibitors, for Sirt3 and Sirt5). Following sonication and centrifugation, the supernatant was loaded onto a nickel column pre-equilibrated with lysis buffer. […]
(§2) The enzymatic activities of human sirtuins were measured by detecting the removal of the crotonyl group from peptides ([Du et al., 2011]). […] Samples were then analyzed by LC-MS with a Vydac 218TP C18 column (4.6 mm×250 mm, 5 μm; Grace Davison, Columbia, MD). […]

[2] = biological target: T1, Sirt2 (Homo sapiens, UniProt Q8IXJ6); assay: Hydrolysis of H3K4Cr by Sirt2, LC-MS; assay type: biochemical; conditions: Sirt2 5 μM, 500 μM peptide, 1 mM NAD, pH 7.5, 37 °C, 2 hr
T1 construct: Plasmids of Sirt1 (193–747), Sirt2 (36–356), Sirt5 (34–302), and Sirt6 (1–314) for Escherichia coli expression; made in house; host or cells: E. coli Rosetta
T1 sequence (Q8IXJ6 36-356): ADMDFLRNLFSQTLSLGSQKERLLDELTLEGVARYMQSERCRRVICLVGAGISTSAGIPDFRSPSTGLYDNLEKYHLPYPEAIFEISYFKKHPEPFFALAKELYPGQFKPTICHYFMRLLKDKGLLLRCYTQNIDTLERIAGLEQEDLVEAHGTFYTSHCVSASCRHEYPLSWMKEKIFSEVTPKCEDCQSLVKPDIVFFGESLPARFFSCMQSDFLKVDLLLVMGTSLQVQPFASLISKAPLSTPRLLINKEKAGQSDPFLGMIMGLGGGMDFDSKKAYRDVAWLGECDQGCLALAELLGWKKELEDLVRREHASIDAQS
Experimental: as §1, §2

[3] = system: Sirt1; assay: Isothermal titration calorimetry, Sirt1; assay type: binding, human; conditions: ITC, 25 °C; Sirt1, compared with Sirt3
Experimental: as §1, with “buffer. The column was washed with 5 column volumes of wash buffer (lysis buffer with 30 mM imidazole) and then the target proteins were eluted with elution buffer (lysis buffer with 250 mM imidazole). After purification, Sirt2 was digested by UPL1 at 4 °C overnight and purified by a Highload 26/60 Superdex75 gel filtration column (GE Healthcare Life Sciences, United Kingdom).” for “buffer.”

[4] = biological target: T1, Sirt2; assay: Isothermal titration calorimetry, Sirt2; assay type: binding; conditions: ITC, 25 °C; Sirt2, compared with Sirt3
[5] = system: Sirt6; assay: Hydrolysis of H3K4Cr by Sirt6, LC-MS; assay type: biochemical, human; conditions: Sirt6 5 μM, 500 μM peptide, 1 mM NAD, pH 7.5, 37 °C, 2 hr
Experimental: as §1, §2

[6] = system: Sirt5; assay: Hydrolysis of H3K4Cr by Sirt5, LC-MS; assay type: biochemical, human; conditions: Sirt5 5 μM, 500 μM peptide, 1 mM NAD, pH 7.5, 37 °C, 2 hr
Experimental: as §1, §2

[7] = system: Sirt3 H248Y; assay: Hydrolysis of crotonylated peptide by mutated Sirt3 H248Y, LC-MS; assay type: biochemical, human; conditions: H248Y mutant, 500 μM peptide, 1 mM NAD, pH 7.5, 37 °C, 2 hr
Experimental: as §1, §2

In the case of “H3K4Cr: lysine-4 crotonylated histone H3 peptide (1–15); (1–10) for crystallography; two C-terminal tryptophans added for kinetics”, the “hydrolysis (decrotonylation) by Sirt1” value [1] is reported as “significant decrotonylation activities; also recorded: catalyzed the hydrolysis of the H3K4Cr peptide”, the “hydrolysis (decrotonylation) by Sirt2” value [2] is reported as “significant decrotonylation activities; also recorded: catalyzed the hydrolysis of the H3K4Cr peptide” and the “binding affinity in words” value [3] is reported as “lower affinities”. For the same substance, the “binding affinity in words” value [4] was “lower affinities”, the “hydrolysis (decrotonylation) by Sirt6” value [5] was “little decrotonylation activities; also recorded: little hydrolysis of the crotonyl peptide was observed” and the “hydrolysis (decrotonylation) by Sirt5” value [6] was “little decrotonylation activities; also recorded: little hydrolysis of the crotonyl peptide was observed”. The “decrotonylation activity of Sirt3 H248Y” value [7] was “completely abolished its decrotonylation activity; also recorded: or with the mutated Sirt3, H248Y”.

“Also recorded” adds a separate entry of the source.
